Measurements as given in article PMC6919601, “Identification of Plasmodium dipeptidyl aminopeptidase allosteric inhibitors by high throughput screening” (PLoS ONE, 2019).

The chains behind the UniProt entries cited, without tags or fusion partners.
UniProt Q8I1Y2, entry or part of it: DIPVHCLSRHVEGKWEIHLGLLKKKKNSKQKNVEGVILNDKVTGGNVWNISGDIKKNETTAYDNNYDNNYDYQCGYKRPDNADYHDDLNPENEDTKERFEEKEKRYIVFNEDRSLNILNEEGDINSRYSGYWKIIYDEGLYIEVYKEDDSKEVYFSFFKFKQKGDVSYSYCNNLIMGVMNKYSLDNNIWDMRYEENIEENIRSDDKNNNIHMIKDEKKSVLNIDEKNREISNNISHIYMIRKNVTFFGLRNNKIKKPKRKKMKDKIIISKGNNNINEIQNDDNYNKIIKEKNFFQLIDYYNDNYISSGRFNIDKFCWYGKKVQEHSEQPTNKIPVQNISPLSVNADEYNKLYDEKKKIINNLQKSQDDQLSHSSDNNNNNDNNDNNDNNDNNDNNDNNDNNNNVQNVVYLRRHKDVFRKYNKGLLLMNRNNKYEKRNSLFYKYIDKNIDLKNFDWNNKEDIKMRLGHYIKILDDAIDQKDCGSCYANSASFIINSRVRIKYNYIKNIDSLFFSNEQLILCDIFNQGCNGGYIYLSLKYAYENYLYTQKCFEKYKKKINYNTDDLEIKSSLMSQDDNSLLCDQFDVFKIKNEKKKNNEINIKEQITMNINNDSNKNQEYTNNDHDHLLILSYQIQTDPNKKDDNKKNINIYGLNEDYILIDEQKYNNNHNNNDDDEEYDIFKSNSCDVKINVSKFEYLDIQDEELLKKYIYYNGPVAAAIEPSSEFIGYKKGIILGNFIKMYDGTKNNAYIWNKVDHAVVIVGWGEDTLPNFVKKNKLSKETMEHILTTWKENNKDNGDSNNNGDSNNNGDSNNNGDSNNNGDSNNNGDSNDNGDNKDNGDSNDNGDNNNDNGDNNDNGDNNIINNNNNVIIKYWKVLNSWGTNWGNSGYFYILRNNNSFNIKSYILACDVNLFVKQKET

Tests used:
DPAP3 [1] = molecular target: T1, DPAP3 (Plasmodium falciparum, UniProt Q8I1Y2); assay: biochemical
DPAP3 [2] = molecular target: T1, DPAP3
CatC = molecular target: CatC; set-up: method as in PMID 31177613; details: covalent inhibitor; cited from earlier work

| SMILES | IC50 (DPAP3 [1]) [µM] | other results |
| --- | --- | --- |
| CC(Oc1cccc(Cl)c1)C(=O)Nc1sc2c(c1C(N)=O)CCCCC2 (stereo not shown) [SMDC106517, CC(Oc1cccc(Cl)c1)C(=O)Nc2sc3CCCCCc3c2C(=O)N] | 21 |  |
| NC(=O)c1c(NC(=O)COc2ccc(Cl)cc2)sc2c1CCCCC2 [SMDC106958, NC(=O)c1c2CCCCCc2sc1NC(=O)COc3ccc(Cl)cc3] | ~100 |  |
| CCN(C(=O)c1ccco1)c1nc(-c2ccccc2)cs1 [SMDC168314, CCN(C(=O)c1occc1)c2nc(cs2)c3ccccc3] | ~100 |  |
| COc1cc(/C=C2/NC(=O)N(Cc3ccccc3F)C2=O)cc(Br)c1O [SMDC103222, COc1cc(\C=C/2\NC(=O)N(Cc3ccccc3F)C2=O)cc(Br)c1O] | ~50 |  |
| Cc1nc(SCC(=O)O)c(C#N)c(C)c1C [SMDC39848, Cc1nc(SCC(=O)O)c(C#N)c(C)c1C] | ~100 |  |
| Cc1ccsc1CCN1CSC2=C(C#N)C(c3ccc(Cl)cc3)CC(=O)N2C1 (stereo not shown) [SMDC178801, Cc1ccsc1CCN2CSC3=C(C#N)C(CC(=O)N3C2)c4ccc(Cl)cc4] | 0.23 |  |
| CCOc1ccc(C2CC(=O)N3CN(C(C)c4ccccc4)CSC3=C2C#N)cc1 (stereo not shown) [SMDC178822, CCOc1ccc(cc1)C2CC(=O)N3CN(CSC3=C2C#N)C(C)c4ccccc4] | 0.16 |  |
| N#CC1=C2SCN(C3CCCCC3)CN2C(=O)CC1c1cccc2ccccc12 (stereo not shown) [SMDC170156, O=C1CC(C(=C2SCN(CN12)C3CCCCC3)C#N)c4cccc5ccccc45] | 0.9 |  |
| CSc1nc(S)c2c3c(sc2n1)CCC3 [SMDC153437A, CSC1=NC(S)=C2C3=C(CCC3)SC2=N1] | 25 |  |
| Cn1c(S)nc2c(=O)oc3ccccc3c21 [SMDC168313, Cn1c(S)nc2C(=O)Oc3ccccc3c12] |  | IC50 DPAP3 (DPAP3 [2]): N.I. |
| N#CC1=C2SCN(Cc3ccco3)CN2C(=O)CC1c1cccc(OCc2ccccc2)c1 (stereo not shown) [SMDC170136, O=C1CC(C(=C2SCN(Cc3occc3)CN12)C#N)c4cccc(OCc5ccccc5)c4] | 0.9 |  |
| Cn1cc(Br)c(C(=O)Nc2sc3c(c2C(N)=O)CCCCC3)n1 [SMDC111619, Cn1cc(Br)c(n1)C(=O)Nc2sc3CCCCCc3c2C(=O)N] |  | IC50 DPAP3 (DPAP3 [2]): N.I. |
| CCC[C@H](N)C(=O)N[C@H](/C=C/S(=O)(=O)c1ccccc1)CCc1ccccc1 [JCP410] |  | ki/Ki for CatC (CatC): 5.8e+06 M⁻¹ s⁻¹ |
| CCc1nccn1C(=O)c1cnn2c(C(F)F)cc(-c3ccccc3)nc12 [SMDC158691, CCc1nccn1C(=O)c2cnn3c(cc(nc23)c4ccccc4)C(F)F] |  | IC50 DPAP3 (DPAP3 [2]): N.I. |
| COc1cccc(C2CC(=O)N3CN(CCc4sccc4C)CSC3=C2C#N)c1 (stereo not shown) [SMDC178790, COc1cccc(c1)C2CC(=O)N3CN(CCc4sccc4C)CSC3=C2C#N] | 0.4 |  |
| Cc1ccc(NC(=O)CN2C(=O)S/C(=C\c3ccccc3O)C2=O)cc1 [SMDC112370, Cc1ccc(NC(=O)CN2C(=O)S\C(=C/c3ccccc3O)\C2=O)cc1] | 31 |  |
